Data on 22 compounds can be found in ChEMBL document CHEMBL1124535, “Highly selective kappa-opioid analgesics. 2. Synthesis and structure-activity relationships of novel N-[(2-aminocyclohexyl)aryl]acetamide derivatives” (1989).

The chains behind the UniProt entries cited, without tags or fusion partners.
UniProt P35372, whole entry, looked up: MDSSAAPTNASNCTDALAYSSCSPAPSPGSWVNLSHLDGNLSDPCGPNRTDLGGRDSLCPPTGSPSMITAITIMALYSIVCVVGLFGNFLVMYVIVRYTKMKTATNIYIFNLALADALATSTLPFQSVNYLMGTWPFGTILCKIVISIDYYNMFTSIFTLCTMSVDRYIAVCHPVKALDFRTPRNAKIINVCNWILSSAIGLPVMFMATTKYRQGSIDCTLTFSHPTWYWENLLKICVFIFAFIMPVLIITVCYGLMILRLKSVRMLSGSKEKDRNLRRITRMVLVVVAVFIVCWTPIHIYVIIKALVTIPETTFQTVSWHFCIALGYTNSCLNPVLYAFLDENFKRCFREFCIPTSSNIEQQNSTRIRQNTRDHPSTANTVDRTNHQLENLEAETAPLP

SMILES strings stand for the structures.

One experiment has as its target Mu-type opioid receptor (Homo sapiens) (UniProt P35372). Nature of the experiment: Ratio of binding affinity towards mu opioid receptor to that of kappa opioid receptor.
Turning to `CN(Cc1cccc2occc12)C(=O)[C@@H]1CCCC[C@H]1N1CCCC1`, the Ratio is 0.55.
The same measure, in the same setting: next, `CO[C@H]1C[C@H](N(C)C(=O)Cc2cccc3occc23)[C@@H](N2CCCC2)C[C@H]1OC`: 51; `O=C(Cc1cccc2sccc12)N[C@@H]1CCCC[C@H]1N1CCCC1`: 14; `CN(C(=S)Cc1cccc2sccc12)[C@@H]1CCCC[C@H]1N1CCCC1`: 13.
On the same count and under the same terms, next, `O=C(Cc1cccc2sccc12)N1CC2CCCN2[C@@H]2CCCC[C@H]21` (some centres not stated): 0.63.
The same measure, in the same setting: next, `CN(C(=O)Cc1cccc2occc12)[C@@H]1CCCC[C@H]1N1CCC(CO)C1` (some centres not stated): 244; `CN(C(=O)Cc1cccc2sccc12)[C@@H]1CCCCC[C@H]1N1CCCC1`: 83.

The target is the same in a further experiment. Nature of the experiment: Ratio of binding affinity towards Opioid receptor mu 1 to that of kappa opioid receptor.
Take `CN(C(=O)Cc1csc2ccccc12)[C@@H]1CCCC[C@H]1N1CCCC1`: the Ratio worked out at 3.3.

The target is the same in the next experiment. Nature of the experiment: Ratio of binding affinity towards opioid receptor mu to that of opioid receptor kappa.
Regarding `CN(C(=O)Cc1cccc2sccc12)[C@@H]1CCC[C@H]1N1CCCC1`, the Ratio amounted to 23.
Same read-out and setting: the same measure for `CN(C(=O)Cc1ccc2ccsc2c1)[C@@H]1CCCC[C@H]1N1CCCC1`: 3; for `CN(C(=O)Cc1cccc2sccc12)[C@@H]1CCCC[C@H]1N1CCCC1`: 110.
Same read-out and setting: the same measure for `CN(C(=O)Cc1cccc2ccsc12)[C@@H]1CCCC[C@H]1N1CCCC1`: 39; for `CCCCCN(CCN1CCCC1)C(=O)Cc1cccc2sccc12`: 2.7.
On the same count and under the same terms, the same measure for `CN(C(=O)Cc1ccc2sccc2c1)[C@@H]1CCCC[C@H]1N1CCCC1`: 5; for `O=C(Cc1cccc2sccc12)O[C@@H]1CCCC[C@H]1N1CCCC1`: 13; for `CN(C(=O)Cc1cccc2[nH]ccc12)[C@@H]1CCCC[C@H]1N1CCCC1`: 1.
For `CN(C(=O)Cc1cccc2occc12)[C@@H]1CCCC[C@H]1N1CCC(COC(=O)CCC(=O)OCC2CCN([C@H]3CCCC[C@@H]3N(C)C(=O)Cc3cccc4occc34)C2)C1` (some centres not stated), the Ratio was determined as 4.4.
As for `CN(C(=O)Cc1cccc2sccc12)[C@@H]1CCCC[C@H]1N1CCC(CO)C1` (some centres not stated), the Ratio turned out to be 80.
Consider `O=C(Cc1cccc2sccc12)NCCN1CCCC1`, for which the Ratio came to 0.4.
Still for that read-out and setting: next, `CN(CCc1cccc2sccc12)[C@@H]1CCCC[C@H]1N1CCCC1`: 20.
The same measure, in the same setting: next, `CO[C@H]1C[C@H](N(C)C(=O)Cc2cccc3sccc23)[C@@H](N2CCCC2)C[C@H]1OC`: 155.
On the same count and under the same terms, next, `CN(C(=O)Cc1cccc2occc12)[C@@H]1CCCC[C@H]1N1CCC(COC(=O)CCCC(=O)OCC2CCN([C@H]3CCCC[C@@H]3N(C)C(=O)Cc3cccc4occc34)C2)C1` (some centres not stated): 4.2.
